Publication PMC9176655, “Nebulized fusion inhibitory peptide protects cynomolgus macaques from measles virus infection” (Research Square, 2022)

System: MeV IC323-eGFP
Assay: Nebulized peptide in MeV-infected cynomolgus macaques
Conditions: 3 ml of 4 mg/ml nebulized 24 h and 6 h before and 24 h after 10^4 PFU intra-tracheal; 3 animals/group; blue light

CC[C@H](C)[C@H](NC(=O)[C@H](C)NC(=O)[C@H](CC(N)=O)NC(=O)CNC(=O)[C@H](CC(C)C)NC(=O)[C@H](CC(N)=O)NC(=O)[C@@H](NC(=O)CNC(=O)[C@@H](NC(=O)[C@H](CC(=O)O)NC(=O)[C@H](CC(C)C)NC(=O)[C@H](CCCNC(=N)N)NC(=O)[C@H](CCC(=O)O)NC(=O)[C@H](CC(C)C)NC(=O)[C@H](CO)NC(=O)[C@@H](NC(=O)[C@@H]1CCCN1C(=O)[C@@H]1CCCN1)[C@@H](C)CC)C(C)C)[C@@H](C)O)C(=O)N[C@@H](C)C(=O)N[C@@H](CCCCN)C(=O)N[C@@H](CC(C)C)C(=O)N[C@@H](CCC(=O)O)C(=O)N[C@@H](CC(=O)O)C(=O)N[C@@H](C)C(=O)N[C@@H](CCCCN)C(=O)N[C@@H](CCC(=O)O)C(=O)N[C@@H](CC(C)C)C(=O)N[C@@H](CC(C)C)C(=O)N[C@@H](CCC(=O)O)C(=O)N[C@@H](CO)C(=O)N[C@@H](CO)C(=O)N[C@@H](CC(=O)O)C(=O)N[C@@H](CCC(N)=O)C(=O)N[C@H](C(=O)N[C@@H](CC(C)C)C(=O)N[C@@H](CCCNC(=N)N)C(=O)NCC(=O)N[C@@H](CO)C(=O)NCC(=O)N[C@@H](CO)C(=O)NCC(=O)N[C@@H](CSC1CC(=O)N(CCCC(=O)NCCOCCOCCOCCOCCC(=O)NCCN(CCNC(=O)CCOCCOCCOCCOCCNC(=O)CCCN2C(=O)CC(SC[C@H](NC(=O)CNC(=O)[C@H](CO)NC(=O)CNC(=O)[C@H](CO)NC(=O)CNC(=O)[C@H](CCCNC(=N)N)NC(=O)[C@H](CC(C)C)NC(=O)[C@@H](NC(=O)[C@H](CCC(N)=O)NC(=O)[C@H](CC(=O)O)NC(=O)[C@H](CO)NC(=O)[C@H](CO)NC(=O)[C@H](CCC(=O)O)NC(=O)[C@H](CC(C)C)NC(=O)[C@H](CC(C)C)NC(=O)[C@H](CCC(=O)O)NC(=O)[C@H](CCCCN)NC(=O)[C@H](C)NC(=O)[C@H](CC(=O)O)NC(=O)[C@H](CCC(=O)O)NC(=O)[C@H](CC(C)C)NC(=O)[C@H](CCCCN)NC(=O)[C@H](C)NC(=O)[C@@H](NC(=O)[C@H](C)NC(=O)[C@H](CC(N)=O)NC(=O)CNC(=O)[C@H](CC(C)C)NC(=O)[C@H](CC(N)=O)NC(=O)[C@@H](NC(=O)CNC(=O)[C@@H](NC(=O)[C@H](CC(=O)O)NC(=O)[C@H](CC(C)C)NC(=O)[C@H](CCCNC(=N)N)NC(=O)[C@H](CCC(=O)O)NC(=O)[C@H](CC(C)C)NC(=O)[C@H](CO)NC(=O)[C@@H](NC(=O)[C@@H]3CCCN3C(=O)[C@@H]3CCCN3)[C@@H](C)CC)C(C)C)[C@@H](C)O)[C@@H](C)CC)[C@@H](C)CC)C(=O)O)C2=O)CCO[C@H]2CC[C@@]3(C)C(=CC[C@H]4[C@@H]5CC[C@H]([C@H](C)CCCC(C)C)[C@@]5(C)CC[C@@H]43)C2)C1=O)C(=O)O)[C@@H](C)CC (stereo partly shown) [HRC4]
GFP-fluorescent rash: no HRC4-treated animals, had a GFP-fluorescent rash
